Here are results for 70 compounds from PubChem BioAssay AID540277 (National Center for Advancing Translational Sciences (NCATS), 2011).

Amino acid sequences for entries named in this document (tags omitted).
UniProt Q8NER1, whole entry: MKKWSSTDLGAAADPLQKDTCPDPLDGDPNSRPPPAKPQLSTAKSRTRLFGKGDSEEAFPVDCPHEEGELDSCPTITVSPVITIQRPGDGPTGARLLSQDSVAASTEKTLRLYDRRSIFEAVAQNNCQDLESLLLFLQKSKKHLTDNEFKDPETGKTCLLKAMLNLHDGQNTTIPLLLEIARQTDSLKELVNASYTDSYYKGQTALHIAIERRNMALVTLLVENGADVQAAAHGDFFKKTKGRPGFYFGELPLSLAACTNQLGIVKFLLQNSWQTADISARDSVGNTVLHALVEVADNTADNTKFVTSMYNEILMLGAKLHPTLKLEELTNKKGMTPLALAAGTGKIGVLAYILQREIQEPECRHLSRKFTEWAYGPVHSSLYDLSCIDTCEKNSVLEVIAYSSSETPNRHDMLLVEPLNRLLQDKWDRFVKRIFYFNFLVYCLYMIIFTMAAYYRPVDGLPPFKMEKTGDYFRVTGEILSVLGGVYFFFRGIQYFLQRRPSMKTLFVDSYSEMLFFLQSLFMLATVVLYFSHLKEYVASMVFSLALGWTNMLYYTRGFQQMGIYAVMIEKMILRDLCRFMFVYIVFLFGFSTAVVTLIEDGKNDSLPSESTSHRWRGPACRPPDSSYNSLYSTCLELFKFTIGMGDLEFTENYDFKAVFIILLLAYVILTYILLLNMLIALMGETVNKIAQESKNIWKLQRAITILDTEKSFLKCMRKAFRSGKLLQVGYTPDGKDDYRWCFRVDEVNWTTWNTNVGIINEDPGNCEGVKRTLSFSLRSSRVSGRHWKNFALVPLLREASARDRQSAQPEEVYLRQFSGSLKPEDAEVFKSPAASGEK

Molecules are shown by their SMILES. The list shows a part of the results. Inconclusive results are not listed. Some salts or complexes appear as unconnected parts, following the source record. Active and inactive are the calls of the source. Rule as the data show it: active = potentiation above about 80%; inconclusive = between about 30% and that limit; inactive = weaker than that.

This experiment concerns the target Transient receptor potential cation channel subfamily V member 1 (Homo sapiens) (UniProt Q8NER1). Description: HTS Assay for Compounds that Act as Potentiators of the Vanilloid Receptor 1. As to potentiation: 0% is about no effect. The note with it: TRPV1-expressing cells, Fluo-8 calcium influx, capsaicin EC20 potentiation; at 8.33 µM, stronger effect = higher value. The source says:
The transient receptor potential ion channel, family V, number 1, (TRPV1) is one of the most important molecular transducers of painful stimuli and a potential target for analgesic drug development. Although recent clinical trials with orthosteric antagonists have not produced a successful drug because of a hyperthermia side effect and their tendency to block thermal noxious pain, this ion channel is undeniably well placed in the pain pathway, and the idea of blocking pain signals before they enter the CNS is an excellent concept and of proven efficacy when TRPV1 agonists are used. We propose a new approach involving allosteric modulation to impose an activity-dependent constraint within the context of inflammation and tissue damage that would alter the responsiveness of the channel in a way that an orthosteric vanilloid antagonist cannot achieve. We believe that the allosteric modulator approach has not been explored for this target. The main goal of this proposal is to identify additional, new, potent allosteric modulators of TRPV1 that can be used to investigate TRPV1 function. Our recent report provides evidence of proof of concept, but the compounds are just at the edge of utility in terms of potency. […] The question of whether they can be used as analgesic agents is complex, but if suitable compounds are identified then testing for analgesic properties will be conducted. NIH Chemical Genomics Center [NCGC] NIH Molecular Libraries Probe Centers Network [MLPCN] MLPCN Grant: MH089480-1A1 Assay Submitter (PI): Michael Iadarola, National Institute of Dental and Cranofacial Research
Upon TRPV1 activation in TRPV1 cells, the channel opens and extracellular cations flow through the channel into the cytosol. A calcium binding dye (Fluo-8) becomes fluorescent when bound to calcium. This dye is pre-loaded into cells and is used as a marker for calcium influx. The amount of accumulated calcium is precisely quantified using the FDSS kinetic reader and the calcium dye. For the HTS assay, freshly prepared cells are plated at a density of 2000/well in 3 ul medium in 1536-well plates and cultured overnight at 35.5C. Cells will be loaded with 1 ul of the homogeneous calcium dye (ABD Bioquest) at room temperature for 40 to 90 minutes. Plates will be loaded into the FDSS kinetic reader and a 1 sec / cycle for 10 second baseline signal will be measured. Compound library will then be added with a pintool at 23 nl and measured kinetically for 3 minutes. This portion of the read is considered the agonist portion of the screen. Following the 3 minutes of incubation, an on board pipettor will deliver 1 ul of capsaicin for a final concentration equal to the EC20. Signal will be measured kinetically for an additional 2 minutes. This portion of the read is considered the allosteric enhancer portion of the screen. The FDSS reader has a standard filter set capable of measuring calcium bound Fluo-8 (ex=480 and em=520 nm).
For the compound `Cc1ccc(OCC(C)C)c(CN(CCCl)CCCl)c1`, the potentiation was inactive: -11.5%.
`CCOC(=O)N1CCC(Nc2cccc(C)c2)CC1`: the potentiation is inactive: -8.37%.
As for `COc1cc(C(=O)NCC2(N(C)C)CCCCC2)ccc1OC(F)F`, the potentiation is inactive: 3.53%.
Regarding `CCOC(=O)N1CCC(Nc2ccc(F)cc2)CC1`, the potentiation was inactive: -19.3%.
In the case of `COc1ccc(NC2CCN(CCc3ccccc3)CC2)c(OC)c1`, the potentiation was inactive: 7.7%.
On to `CCCCOc1ccc(C(=O)NCC2(N3CCOCC3)CCCCC2)cc1`, for which the potentiation was inactive: -13.4%.
Take `O=C(NCC1(N2CCCCC2)CCCCC1)c1ccc(F)cc1`: the potentiation is inactive: -13.5%.
Regarding `CCOc1ccc(C)cc1CN(CCCl)CCCl`, the potentiation was inactive: -8.39%.
For the compound `COc1ccc(Cl)cc1C(=O)NCC1(N2CCOCC2)CCCCC1`, the potentiation is inactive: -16.7%.
As to `O=C(NCC1(N2CCCCC2)CCCCC1)c1ccc(Cl)s1`, the potentiation was inactive: -11.7%.
Consider `N#CC1(Nc2ccccc2)CCN(Cc2ccccc2)CC1`, for which the potentiation was inactive: -8.24%.
With `O=C(OC1CN2CCC1CC2)C1c2ccccc2Oc2ccccc21` (stereo not given), the potentiation is inactive: -7.51%.
On to `CCOC(=O)N1CCC(Nc2ccc(OC)cc2)CC1`, for which the potentiation is inactive: -4.16%.
For the compound `Cc1cc(C)cc(N(C(=O)c2ccccc2)C2CCN(C(=O)OC(C)(C)C)CC2)c1`, the potentiation was inactive: -21.9%.
Take `O=C(NCC1(N2CCCCC2)CCCCC1)c1ccc(Cl)nc1`: the potentiation is inactive: -6.41%.
Turning to `O=C(NCC1(N2CCOCC2)CCCCC1)c1cc2ccccc2o1`, the potentiation was inactive: 17.2%.
For `CSc1ccccc1C(=O)NCC1(N2CCCCC2)CCCCC1` the value was inactive: -6.98%.
For `CC(C)(C)OC(=O)N1CCC(N(C(=O)c2ccccc2)c2ccc(F)cc2)CC1`, the potentiation is inactive: -25.7%.
For the compound `COc1ccc(C(=O)NCC2(N3CCCCC3)CCCCC2)c(OC)c1OC`, the potentiation was inactive: 1.84%.
In the case of `COc1ccc(C(=O)NCC2(N3CCCCC3)CCCCC2)cc1`, the potentiation is inactive: -6.7%.
On to `O=C(NCC1(N2CCCCC2)CCCCC1)c1cccs1`, for which the potentiation is inactive: -9.85%.
Regarding `O=C(NCC1(N2CCCCC2)CCCCC1)c1ccc(=O)[nH]c1`, the potentiation is inactive: -4.14%.
Turning to `CCCOc1ccc(C(=O)NCC2(N(C)C)CCCCC2)cc1OC`, the potentiation was inactive: -1.35%.
For the compound `COc1ccc2c(c1O)-c1c(O)c(OC)cc3c1[C@H](C2)[N+](C)(C)CC3.O=[N+]([O-])c1cc([N+](=O)[O-])c([O-])c([N+](=O)[O-])c1[O-]`, the potentiation is inactive: -13.3%.
Take `O=C(NCC1(N2CCCCC2)CCCCC1)c1cncc(Br)c1`: the potentiation is inactive: -5.66%.
For `COc1cc(OC)c(C(=O)NCC2(N(C)C)CCCCC2)cc1OC` the value was inactive: 1.68%; for `CC(C)c1ccc(NC2CCN(C(=O)OC(C)(C)C)CC2)cc1`, inactive: -32.6%.
In the case of `CN(C)c1cccc(C(=O)NCC2(N3CCCCC3)CCCCC2)c1`, the potentiation was inactive: -0.888%.
For `O=[N+]([O-])c1cc([N+](=O)[O-])c(OC2CCCCC2O)c([N+](=O)[O-])c1` (stereo not given), the potentiation is inactive: 0.976%.
`COc1ccc(CN(CCCl)CCCl)cc1Cl`: the potentiation was inactive: 8.86%.
For `O=C(NCC1(N2CCOCC2)CCCCC1)c1cc(=O)[nH]c2ccccc12`, the potentiation was inactive: 3.59%.
On to `COc1cc(C(=O)NCC2(N3CCCCC3)CCCCC2)ccc1OC(F)F`, for which the potentiation was inactive: 7.41%.
For `CC(C)c1ccc(C(=O)NCC2(N3CCOCC3)CCCCC2)cc1`, the potentiation is inactive: 6.58%.
For the compound `COc1ccc(NC2CCN(C(=O)OC(C)(C)C)CC2)cc1`, the potentiation is inactive: -3.76%.
As to `CN1CCN(CCOC(=O)C(O)(c2ccccc2)c2ccccc2)CC1`, the potentiation was inactive: -5.29%.
For `O=[N+]([O-])c1cc([N+](=O)[O-])c(NCC2CCS(=O)(=O)C2)c([N+](=O)[O-])c1` (stereo not given) the value was inactive: 13.5%; for `O=C(NCC1(N2CCCCC2)CCCCC1)c1cccc(C(F)(F)F)c1`, inactive: -4.17%; for `N#CC1(Nc2ccccc2)CCN(CCc2ccccc2)CC1`, inactive: 4.8%.
On to `CCN1CCC(Nc2ccc(Cl)cc2)CC1`, for which the potentiation is inactive: -7.2%.
In the case of `O=C(NCC1(N2CCCCC2)CCCCC1)c1cccc([N+](=O)[O-])c1`, the potentiation is inactive: 3.83%.
For `CSc1ccc(C(=O)NCC2(N3CCOCC3)CCCCC2)cc1`, the potentiation is inactive: -6.56%.
For `O=C(NCC1(N2CCCCC2)CCCCC1)c1ccc(OC(F)F)cc1`, the potentiation is inactive: 3.68%.
Consider `CN(C)C1(CNC(=O)c2cccc(C#N)c2)CCCCC1`, for which the potentiation was inactive: -24.9%.
As for `CCCN1CCC(Nc2cc(OC)cc(OC)c2)CC1`, the potentiation is inactive: 3.35%.
In the case of `c1ccc(CN2CCC(Nc3ccccc3)CC2)cc1`, the potentiation was inactive: 10%.
In the case of `CCOC(=O)C(CC)C1=NC(C)(C)Cc2ccccc21.O=[N+]([O-])c1cc([N+](=O)[O-])c(O)c([N+](=O)[O-])c1` (stereo not given), the potentiation was inactive: 5.05%.
For the compound `N#Cc1ccc(C(=O)NCC2(N3CCCCC3)CCCCC2)cc1`, the potentiation was inactive: -0.335%.
As to `CC(C)(C)OC(=O)N1CCC(N(C(=O)c2ccccc2)c2ccc(Cl)cc2)CC1`, the potentiation is inactive: -19.3%.
As to `O=C(O)c1cccc(Nc2c([N+](=O)[O-])cc([N+](=O)[O-])cc2[N+](=O)[O-])c1`, the potentiation was inactive: -5.95%.
Regarding `CCc1cc(C(=O)NCC2(N3CCCCC3)CCCCC2)sc1C`, the potentiation was inactive: 11.1%.
In the case of `O=C(OC1CN2CCC1CC2)C1c2ccccc2C=Cc2ccccc21` (stereo not given), the potentiation is inactive: 0.177%.
For `CCOC(=O)N1CCC(Nc2ccc(C)cc2)CC1` the value was inactive: -37.6%.
In the case of `N/C(=N\O)c1c(N)no[n+]1[O-]`, the potentiation was inactive: -2.42%.
In the case of `COc1ccc(C(=O)NCC2(N3CCOCC3)CCCCC2)cc1OC`, the potentiation result was “active”.
Regarding `O=C(NCC1(N2CCOCC2)CCCCC1)c1cc(Br)ccc1Cl`, the potentiation is inactive: -22%.
For `CN1CCC(Nc2ccc(Cl)cc2)CC1`, the potentiation was inactive: -3.11%.
For `CCCOc1ccc(C)cc1CN(CCCl)CCCl` the value was inactive: 19.4%; for `COc1cccc(C(=O)N(c2cc(C)cc(C)c2)C2CCN(C(=O)OC(C)(C)C)CC2)c1`, inactive: 25.2%.
Consider `COc1cc(OC)cc(C(=O)NCC2(N3CCOCC3)CCCCC2)c1`, for which the potentiation was inactive: -6.95%.
As for `CCC(CO)(C(=O)OC1CN2CCC1CC2)c1ccccc1` (stereo not given), the potentiation was inactive: -6.22%.
For `O=C(O)C1(Nc2ccccc2)CCN(Cc2ccccc2)CC1`, the potentiation was inactive: -1.13%.
With `CC(C)(C)OC(=O)N1CCC(Nc2ccccc2)CC1`, the potentiation is inactive: -17%.
For `CCCOc1ccc(C(=O)NCC2(N(C)C)CCCCC2)cc1`, the potentiation is inactive: -3.58%.
Regarding `CN1CCC(Nc2ccc(F)c(Cl)c2)CC1`, the potentiation is inactive: -16.3%.
For the compound `CCOc1ncccc1C(=O)NCC1(N2CCOCC2)CCCCC1`, the potentiation was inactive: -6.93%.
Turning to `CN(C)c1ccc(C(=O)NCC2(N3CCCCC3)CCCCC2)cc1`, the potentiation is inactive: -1.38%.
Take `O=C(NCC1(N2CCCCC2)CCCCC1)c1ccco1`: the potentiation was inactive: 6.84%.
Turning to `CCN1CCC(Nc2cccc(F)c2)CC1`, the potentiation is inactive: 9.02%.
For `Fc1ccccc1NC1CCN(Cc2ccccc2)CC1`, the potentiation was inactive: 0.931%.
As for `COc1cc(OC)cc(C(=O)NCC2(N3CCCCC3)CCCCC2)c1`, the figure is inactive: 22.7%.
